Results on eight molecules are retold here after patent US10155727B2, “Pyrazoles” (Janssen Pharmaceuticals, Inc., priority 2014, dated 2018).

Chains of the proteins cited; added tags and fusions are not shown. Residues count along the entry.
UniProt Q00960, 27-1482: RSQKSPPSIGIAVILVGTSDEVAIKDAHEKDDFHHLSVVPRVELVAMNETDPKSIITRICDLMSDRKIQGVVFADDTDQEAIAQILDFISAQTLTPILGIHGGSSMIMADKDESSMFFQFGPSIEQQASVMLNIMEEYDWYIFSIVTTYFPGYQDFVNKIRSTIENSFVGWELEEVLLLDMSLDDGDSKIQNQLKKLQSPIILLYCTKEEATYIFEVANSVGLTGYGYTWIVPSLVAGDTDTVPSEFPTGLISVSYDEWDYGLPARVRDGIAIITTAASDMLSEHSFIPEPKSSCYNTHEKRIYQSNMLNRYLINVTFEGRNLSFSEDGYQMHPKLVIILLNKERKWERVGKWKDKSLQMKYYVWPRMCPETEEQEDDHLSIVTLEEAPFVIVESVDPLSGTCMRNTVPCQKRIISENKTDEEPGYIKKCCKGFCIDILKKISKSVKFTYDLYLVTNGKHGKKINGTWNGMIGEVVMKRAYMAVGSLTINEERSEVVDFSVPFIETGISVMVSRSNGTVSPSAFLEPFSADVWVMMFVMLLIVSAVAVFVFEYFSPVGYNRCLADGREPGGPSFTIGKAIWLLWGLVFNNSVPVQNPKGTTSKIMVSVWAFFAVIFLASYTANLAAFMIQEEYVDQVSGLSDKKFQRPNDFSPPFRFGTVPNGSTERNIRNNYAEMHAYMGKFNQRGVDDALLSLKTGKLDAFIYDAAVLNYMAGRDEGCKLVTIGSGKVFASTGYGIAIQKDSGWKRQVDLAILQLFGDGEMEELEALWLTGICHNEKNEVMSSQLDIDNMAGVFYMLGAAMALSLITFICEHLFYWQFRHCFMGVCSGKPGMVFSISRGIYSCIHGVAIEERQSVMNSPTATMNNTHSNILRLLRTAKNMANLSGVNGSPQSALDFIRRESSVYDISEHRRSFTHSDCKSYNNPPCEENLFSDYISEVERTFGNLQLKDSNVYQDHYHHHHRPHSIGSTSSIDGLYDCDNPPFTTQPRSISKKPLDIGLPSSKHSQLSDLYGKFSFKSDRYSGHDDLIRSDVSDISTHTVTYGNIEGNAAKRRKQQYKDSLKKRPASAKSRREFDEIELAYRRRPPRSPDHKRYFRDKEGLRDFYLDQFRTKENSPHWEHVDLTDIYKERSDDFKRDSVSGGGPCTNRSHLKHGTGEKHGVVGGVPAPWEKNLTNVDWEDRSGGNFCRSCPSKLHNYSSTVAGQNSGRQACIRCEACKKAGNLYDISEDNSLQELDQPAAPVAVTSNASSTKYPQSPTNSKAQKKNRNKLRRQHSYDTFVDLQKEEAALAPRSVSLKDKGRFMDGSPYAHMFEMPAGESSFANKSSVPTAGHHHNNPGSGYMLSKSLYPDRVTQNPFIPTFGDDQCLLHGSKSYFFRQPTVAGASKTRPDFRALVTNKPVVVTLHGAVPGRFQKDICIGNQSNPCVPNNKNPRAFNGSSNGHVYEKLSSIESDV

The target of the test is rat NR1/NR2B receptor (Rattus norvegicus (Rat), UniProt P35439+Q00960). As to the kind of experiment: NR2B binding assay: inhibition of specific [3H]-Ifenprodil binding to the rat NR1/NR2B receptor. The following applies: rat brain membranes. How it is done: Biological Assays Inhibition of Specific Binding to the Rat NR1/NR2B Receptor
Male Wistar rats (180 to 200 g) were killed by suffocation in a CO2 chamber for two minutes. Whole brains without cerebellum were removed and dissected on ice, placed into closed vials and stored at −70° C.
Membrane fractions were prepared and tested using standard techniques. At the time of the assay, 1 g of the brains was placed into 25 ml of 50 mM Tris/10 mM EDTA buffer, pH 7.1, (25 vol. per g of original tissue) and homogenized for 30 sec at 20000 rpm with an Ultraturrax T25 (Jahnke & Kunkel, IKA-Labortechnik, Staufen, Germany).
The supernatant was discarded and the pellet was homogenized on ice for 30 sec at 20000 rpm with an Ultraturrax and again centrifuged at 48000 g for 30 minutes at 4° C. The resultant pellet was resuspended in 25 ml of 50 mM Tris/10 mM EDTA buffer, homogenized for 30 sec with an Ultraturrax, aliquoted, frozen at −70° C. and stored until use.
After thawing on the day of the assay, a 5 ml membrane aliquot was centrifuged at 48000 g for 30 min at 4° C. The pellet was resuspended in 5 ml of 5 mM Tris/1 mM EDTA buffer, pH 7.4, homogenized for 30 sec at 20000 rpm with an Ultraturrax and centrifuged at 48000 g for 30 min at 4° C. This was repeated twice. The final pellet was homogenized in 5 ml of 5 mM Tris/1 mM EDTA buffer at 4° C. with an Ultraturrax and used for the Ifenprodil-binding assay as described in the following.
Nonspecific binding was estimated in the presence of […] CP101.606. The samples were incubated for 60 min. at 4° C.
The incubation was terminated by filtration of the membrane preparations using Filtermat B (Pharmacia, Uppsala Sweden) and a Micro Cell Harvester (Skatron, Lier, Norway). The Filtermat B had been presoaked with 1% polyethylene imine and carefully washed with 50 mM Tris/HCl-buffer pH 7.7 after the filtration to separate free and bound radioactivity.
The optimal amount of membrane preparation in the assay was determined and optimized for each membrane preparation separately before the test.
For pipetting of the incubation mixture the robot Biomek2000 (Fa. Beckman) was used.
For determination of IC50 values the Hill-plot, 2-parameter-model was used.

With `Cc1cc(Cn2cc(-c3cccc(Br)c3)cn2)n(C)n1` [Example 81, 5-[[4-(3-bromophenyl)pyrazol-1-yl]methyl]-1,3-dimethyl-pyrazole Succinate], the IC50 is 4.63 µM. In the case of `Cc1cc(Cn2cc(-c3cccc(OC(F)(F)F)c3)cn2)n(C)n1` [Example 22, 1,3-dimethyl-5-[[4-[3-(trifluoromethoxy)phenyl]pyrazol-1-yl]methyl] pyrazole Succinate] it was 2.76 µM; in that of `FC(F)c1cc(Cl)cc(-c2cnn(Cc3cc[nH]n3)c2)c1` [Example 28, 4-[3-chloro-5-(difluoromethyl)phenyl]-1-(1H-pyrazol-3-ylmethyl)pyrazole], 0.638 µM; in that of `Cc1cc(Cn2cc(-c3ccc(Cl)cc3Cl)cn2)n(C)n1` [Example 65, 5-[[4-(2,4-dichlorophenyl)pyrazol-1-yl]methyl]-1,3-dimethyl-pyrazole], 3.81 µM. `Cc1cc(Cn2cc(-c3ccc(Br)cc3)cn2)n(C)n1` [Example 80, 5-[[4-(4-bromophenyl)pyrazol-1-yl]methyl]-1,3-dimethyl-pyrazole] showed an IC50 of 6.21 µM. As to `Cc1cc(Cn2cc(-c3ccc(Cl)c(C)c3)cn2)n(C)n1` [Example 57, 5-[[4-(4-chloro-3-methyl-phenyl)pyrazol-1-yl]methyl]-1,3-dimethyl-pyrazole Succinate], the concentration for half-maximal inhibition (IC50) is 0.967 µM. In the case of `Cc1n[nH]c(C)c1CCn1cc(-c2ccc(Cl)c(C(F)F)c2)cn1` [Example 27, 4-[2-[4-[4-Chloro-3-(difluoromethyl)phenyl]pyrazol-1-yl]ethyl]-3,5-dimethyl-1H-pyrazole] it was 7.17 µM. Take `CCn1cncc1Cn1cc(-c2ccc(F)c(C)c2)cn1` [Example 96, 4-(4-fluoro-3-methylphenyl)-1-((1-ethyl-1H-imidazol-5-yl)methyl)-1H-pyrazole]: the IC50 stood at 0.0778 µM.

By IC50 is commonly meant the concentration that inhibits the measured activity by half. A high value points to weaker potency in that assay.
